{"sequences": {"note": "The chains behind the UniProt entries cited, without tags or fusion partners. Where a name states a change or a piece, a line headed by the entry shows the natural chain unless it says otherwise.", "UniProt O15379": "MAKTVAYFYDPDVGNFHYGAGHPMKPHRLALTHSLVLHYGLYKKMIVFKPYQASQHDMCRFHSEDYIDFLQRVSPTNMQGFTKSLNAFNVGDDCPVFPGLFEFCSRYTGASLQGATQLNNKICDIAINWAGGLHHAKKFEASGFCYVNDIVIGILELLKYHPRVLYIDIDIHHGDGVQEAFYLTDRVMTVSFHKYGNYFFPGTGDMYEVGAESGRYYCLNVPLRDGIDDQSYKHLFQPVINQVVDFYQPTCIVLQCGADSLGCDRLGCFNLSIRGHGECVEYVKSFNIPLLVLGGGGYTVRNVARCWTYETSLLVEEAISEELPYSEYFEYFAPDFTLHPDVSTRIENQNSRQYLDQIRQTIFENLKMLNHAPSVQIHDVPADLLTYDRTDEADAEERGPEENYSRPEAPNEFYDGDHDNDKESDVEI"}, "source": "ChEMBL document CHEMBL4823270", "about": "“A first-in-class anticancer dual HDAC2/FAK inhibitors bearing hydroxamates/benzamides capped by pyridinyl-1,2,4-triazoles” (Eur J Med Chem, 2021)", "target": "Histone deacetylase 3 (Homo sapiens, UniProt O15379)", "data": [{"compound": "CCCC(CCC)C(=O)O", "note": "[VALPROIC ACID]", "values": [{"measurement": "IC50", "value": 135, "unit": "µM"}]}]}
